Laboratory results from patent US7470550B2, “Method of evaluating cell activity” (Toyo Advanced Technologies Co., Ltd., priority 2001, dated 2008).

System: CTLL-2 cells
Experiment: SPR measurement of reaction of CTLL2 cells (suspended cells) with IL-2
Format: cell-based
Settings: IL-2 62.5 ng/ml, 60 μl, 37° C.; for SPR signal (difference between measuring portion and control portion): living CTLL-2 cells immobilized on sensor chip, PBS perfusion 15 μl/min
Protocol: In the method of the invention, cells are immobilized on a analyzer in the same manner as in the usual SPR measurement for vial cells, to which a stimulus as mentioned above is given to determine the signal as a change of permittivity in a conventional procedure. In this procedure, the invention is characterized in that, in addition to a signal observed during the stimulus on the cells (a primary signal), a secondary signal appearing subsequent to the primary signal is measured as an indication for evaluating the cellular activity responding to the external stimulus.
The method of the invention will be explained in more detail by the following examples, which are not intended to limit the scope of the invention. In the following examples, SPR-CELLIA (Japan Laser Electronic Co.) was used as an SPR analyzer. The sensor chip for amine coupling was prepared as follows.
In 10 μM solution of 4,4-dithiodibutyric acid in ethanol was immersed a sensor chip and stirred for 30 minutes. Thereafter, the chip was washed with dry ethanol and dried. Water-soluble carbodiimide (25 mg) was dissolved in 1 ml of MilliQ water, and 15mg of N-hydroxysuccinimide in 9 ml of 1,4-dioxane, respectively. Both solutions were mixed immediately before the dried sensor chip was immersed therein and the mixture stirred for 10 minutes. Then, there was added 10 ml of MilliQ water, and the mixture was stirred for 5 minutes. The chip was washed with MilliQ water and preserved in MilliQ water.
The suspension (30 μl)of CTLL-2 cells (2×10^5 cells/ml) in PBS were directly placed onto both of sensor chip-measuring portion and control portion, and the chip was blocked with 50 μl of 1% BSA. The sensor chip was equipped in a flow-cell unit of the SPR analyzer, of which the temperature was set at 37° C. and was perfused with PBS at a flow rate of 15 μl/min. IL-2 (62.5 ng/ml, 60 μl) was injected into the measuring portion, while PBS continuously perfused, and the change of the signal was measured. The portion into which no IL-2 was injected was used as a control.

IL-2: cytokine ligand injected onto CTLL-2 cells
periodicity of the characteristic SPR signal (CTLL-2 cells): about 10 minutes
SPR signal (difference between measuring portion and control portion): a characteristic signal appeared

B1: IL-3: agent which does not bind to CTLL-2 cells (protein, UniProt P08700 20-152, looked up)
Interleukin-3: APMTQTTPLKTSWVNCSNMIDEIITHLKQPPLPLLDFNNLNGEDQDILMENNLRRPNLEAFNRAVKSLQNASAIESILKNLLPCLPLATAAPTRHPIHIKDGDWNEFRRKLTFYLKTLENAQAQQTTLSLAIF
SPR signal (difference between measuring portion and control portion): no signal was observed
